{"source": "patent US9289509B2", "about": "“Uses of immunoconjugates targeting CD138” (Biotest AG, priority 2009, dated 2016)", "tested_on": "MOLP 8 human myeloma cells", "key": {"[1]": {"conditions": "lenalidomide 100 mg/kg per injection, total dose 1 g/kg"}}, "note": "Where two headings read alike, the source gives them in different places.", "data": [{"molecule": "BT062", "values": [{"measurement": "Regressions Complete", "setting": "BT062 100 ug/kg", "result": "0/6"}, {"measurement": "Regressions Partial", "setting": "BT062 100 ug/kg", "result": "0/6"}, {"measurement": "Result", "setting": "BT062 100 ug/kg", "result": "Active"}, {"measurement": "T/C (%) (DAY 17)", "setting": "BT062 100 ug/kg", "result": 35, "unit": "%"}, {"measurement": "Tumor free survivors day 77", "setting": "BT062 100 ug/kg", "result": "0/6"}, {"measurement": "Regressions Complete", "setting": "BT062 200 ug/kg", "result": "0/6"}, {"measurement": "Regressions Partial", "setting": "BT062 200 ug/kg", "result": "0/6"}, {"measurement": "Result", "setting": "BT062 200 ug/kg", "result": "Active"}, {"measurement": "T/C (%) (DAY 17)", "setting": "BT062 200 ug/kg", "result": 14, "unit": "%"}, {"measurement": "Tumor free survivors day 77", "setting": "BT062 200 ug/kg", "result": "0/6"}, {"measurement": "Regressions Complete", "setting": "BT062 400 ug/kg", "result": "1/6"}, {"measurement": "Regressions Partial", "setting": "BT062 400 ug/kg", "result": "4/6"}, {"measurement": "T/C (%) (DAY 17)", "setting": "BT062 400 ug/kg", "result": 9, "unit": "%"}, {"measurement": "Tumor free survivors day 77", "setting": "BT062 400 ug/kg", "result": "0/6"}, {"measurement": "Fractional tumor volume (FTV)", "setting": "BT062 100 alone, day 10", "result": 0.93}, {"measurement": "Fractional tumor volume (FTV)", "setting": "BT062 100 alone, day 14", "result": 0.75}, {"measurement": "Fractional tumor volume (FTV)", "setting": "BT062 100 alone, day 17", "result": 0.52}, {"measurement": "Fractional tumor volume (FTV)", "setting": "BT062 100 alone, day 21", "result": 0.53}, {"measurement": "Fractional tumor volume (FTV)", "setting": "BT062 100 alone, day 24", "result": 0.44}, {"measurement": "Fractional tumor volume (FTV)", "setting": "BT062 100 alone, day 28", "result": 0.33}, {"measurement": "Fractional tumor volume (FTV)", "setting": "BT062 200 alone, day 10", "result": 1.02}, {"measurement": "Fractional tumor volume (FTV)", "setting": "BT062 200 alone, day 14", "result": 0.45}, {"measurement": "Fractional tumor volume (FTV)", "setting": "BT062 200 alone, day 17", "result": 0.13}, {"measurement": "Fractional tumor volume (FTV)", "setting": "BT062 200 alone, day 21", "result": 0.08}, {"measurement": "Fractional tumor volume (FTV)", "setting": "BT062 200 alone, day 24", "result": 0.11}, {"measurement": "Fractional tumor volume (FTV)", "setting": "BT062 200 alone, day 28", "result": 0.13}, {"measurement": "Fractional tumor volume (FTV)", "setting": "BT062 400 alone, day 10", "result": 0.94}, {"measurement": "Fractional tumor volume (FTV)", "setting": "BT062 400 alone, day 14", "result": 0.44}, {"measurement": "Fractional tumor volume (FTV)", "setting": "BT062 400 alone, day 17", "result": 0.09}, {"measurement": "Fractional tumor volume (FTV)", "setting": "BT062 400 alone, day 21", "result": 0.04}, {"measurement": "Fractional tumor volume (FTV)", "setting": "BT062 400 alone, day 24", "result": 0.04}, {"measurement": "Fractional tumor volume (FTV)", "setting": "BT062 400 alone, day 28", "result": 0.04}]}, {"molecule": "Nc1cccc2c1CN(C1CCC(=O)NC1=O)C2=O", "note": "(stereo not shown) [Lenalidomide, reference compound]", "values": [{"measurement": "Fractional tumor volume (FTV)", "setting": "Lenalidomide alone, 100 mg/kg ip days 1-5 and 8-12, day 10", "result": 1.00}, {"measurement": "Fractional tumor volume (FTV)", "setting": "Lenalidomide alone, 100 mg/kg ip days 1-5 and 8-12, day 14", "result": 0.82}, {"measurement": "Fractional tumor volume (FTV)", "setting": "Lenalidomide alone, 100 mg/kg ip days 1-5 and 8-12, day 17", "result": 0.45}, {"measurement": "Fractional tumor volume (FTV)", "setting": "Lenalidomide alone, 100 mg/kg ip days 1-5 and 8-12, day 21", "result": 0.42}, {"measurement": "Fractional tumor volume (FTV)", "setting": "Lenalidomide alone, 100 mg/kg ip days 1-5 and 8-12, day 24", "result": 0.55}, {"measurement": "Fractional tumor volume (FTV)", "setting": "Lenalidomide alone, 100 mg/kg ip days 1-5 and 8-12, day 28", "result": 0.46}, {"measurement": "Regressions Complete", "setting": "[1]", "result": "0/6"}, {"measurement": "Regressions Partial", "setting": "[1]", "result": "0/6"}, {"measurement": "Result", "setting": "[1]", "result": "Active"}, {"measurement": "T/C (%) (DAY 17)", "setting": "[1]", "result": 31, "unit": "%"}, {"measurement": "Tumor free survivors day 77", "setting": "[1]", "result": "0/6"}]}]}
